Measured values reported in ChEMBL document CHEMBL1123259, “Probes for narcotic receptor mediated phenomena. 13. Potential irreversible narcotic antagonist-based ligands derived from 6,14-endo-ethenotetrahydronororipavine with 7-(methoxyfumaroyl)amino, (bromoacetyl)amino, or isothiocyanate electrophiles: chemistry, biochemistry, and pharmacology” (1986).

Chains of the proteins cited; added tags and fusions are not shown.
UniProt P33533, whole entry: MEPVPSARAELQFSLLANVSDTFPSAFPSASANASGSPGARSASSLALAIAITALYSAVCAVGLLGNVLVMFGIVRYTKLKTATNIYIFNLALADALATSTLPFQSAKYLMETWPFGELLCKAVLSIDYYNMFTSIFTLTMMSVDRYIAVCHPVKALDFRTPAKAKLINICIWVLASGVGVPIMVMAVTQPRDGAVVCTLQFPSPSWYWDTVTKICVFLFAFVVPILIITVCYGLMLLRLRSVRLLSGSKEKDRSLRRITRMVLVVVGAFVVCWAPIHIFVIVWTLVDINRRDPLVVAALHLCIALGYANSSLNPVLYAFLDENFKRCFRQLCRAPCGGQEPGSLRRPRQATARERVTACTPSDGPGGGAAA
UniProt P34975, whole entry: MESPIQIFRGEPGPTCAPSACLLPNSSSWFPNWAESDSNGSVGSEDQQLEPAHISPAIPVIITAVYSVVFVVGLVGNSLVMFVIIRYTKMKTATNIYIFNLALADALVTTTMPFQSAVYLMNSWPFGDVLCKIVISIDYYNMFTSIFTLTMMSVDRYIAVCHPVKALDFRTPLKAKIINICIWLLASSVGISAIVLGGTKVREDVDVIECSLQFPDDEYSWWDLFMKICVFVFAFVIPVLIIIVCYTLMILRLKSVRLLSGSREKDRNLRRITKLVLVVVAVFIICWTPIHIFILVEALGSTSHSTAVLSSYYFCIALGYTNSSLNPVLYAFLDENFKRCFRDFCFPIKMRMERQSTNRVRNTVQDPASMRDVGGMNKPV
UniProt P33535, whole entry: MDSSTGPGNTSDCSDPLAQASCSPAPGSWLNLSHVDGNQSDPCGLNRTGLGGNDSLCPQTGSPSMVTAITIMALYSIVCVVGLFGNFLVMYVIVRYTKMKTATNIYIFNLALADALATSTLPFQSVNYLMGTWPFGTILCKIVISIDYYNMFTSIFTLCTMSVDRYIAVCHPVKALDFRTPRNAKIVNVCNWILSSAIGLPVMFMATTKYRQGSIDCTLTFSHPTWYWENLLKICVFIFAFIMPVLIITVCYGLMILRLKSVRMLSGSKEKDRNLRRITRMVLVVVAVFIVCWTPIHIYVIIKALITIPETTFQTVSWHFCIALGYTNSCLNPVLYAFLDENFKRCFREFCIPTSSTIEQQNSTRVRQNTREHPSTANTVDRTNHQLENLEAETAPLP

Tests used:
[1] = target: Opioid receptor (Rattus norvegicus, UniProt P33533+P34975+P33535); test: Displacement of [3H]dalamid ([D-Ala2,Met5] enkephalinamide) from opioid receptors of rat brain membrane
[2] = tested on: Mus musculus; test: In vivo antagonist/agonist nature after subcutaneous administration to mice using tail flick (TF) antagonist assay vs. morphine

Structure (SMILES)	EC50 [1]	ED50 [2]
CCCN1CC[C@]23c4c5ccc(O)c4O[C@H]2[C@@]2(OC)C=C[C@@]3(C[C@@H]2NC(=O)/C=C/C(=O)OC)[C@H]1C5	0.18 µM	1.8 mg/kg
CCCN1CC[C@]23c4c5ccc(O)c4O[C@H]2C2(OC)C=C[C@@]3(C[C@@H]2N=S)[C@H]1C5.O=C(O)C(=O)O	0.13 µM	0.7 mg/kg
CCCN1CC[C@]23c4c5ccc(O)c4O[C@H]2C2(OC)C=C[C@@]3(C[C@@H]2N)[C@H]1C5.O=C(O)C(=O)O	0.1 µM	–
COC12C=C[C@@]3(C[C@@H]1N=S)[C@H]1Cc4ccc(O)c5c4[C@@]3(CCN1CC1CC1)[C@H]2O5.O=C(O)C(=O)O	0.007 µM	–
CO[C@]12C=C[C@@]3(C[C@@H]1N)[C@H]1Cc4ccc(O)c5c4[C@@]3(CCN1CC1CC1)[C@H]2O5	0.006 µM	–
CCCN1CC[C@]23c4c5ccc(O)c4O[C@H]2[C@@]2(OC)C=C[C@@]3(C[C@@H]2NC(=O)CBr)[C@H]1C5	0.13 µM	0.6 mg/kg
CO[C@]12C=C[C@@]3(C[C@@H]1NC(=O)CBr)[C@H]1Cc4ccc(O)c5c4[C@@]3(CCN1CC1CC1)[C@H]2O5	0.007 µM	–
COC(=O)/C=C/C(=O)N[C@H]1C[C@@]23C=CC1(OC)[C@@H]1Oc4c(O)ccc5c4[C@@]12CCN(CC1CC1)[C@@H]3C5.O=C(O)C(=O)O	0.006 µM	–
